From patent US6716428B1, “Antigenic modification of polypeptides” (The Ohio State University Research Foundation, priority 1999, dated 2004)
Entries after “also recorded” stand apart in the source; their conditions may differ. Blank lines part the entries; values can stand above or below the substance they belong to.

What was measured:
[1] = test system: baboon LH; test: Antibody production and cross-reactivity with baboon LH in baboons immunized with diazo-gonadotropins (I^131 hormone binding); format: in vivo; conditions: for cross-reactivity of induced antibodies with baboon LH: antisera at peak levels, immunized baboons
Description: (§1) Female baboons received their initial immunization on days 3-5 of the menstrual cycle and the second and third injections one week apart. The fourth injection was given 2-3 weeks after the third. A few animals received a fifth injection at 70-80 days after the first injections. All antigens were administered subcutaneously in a suspension of mannide monooleate or peanut oil. Doses of antigens for each injection varied between 3 and 5 mg. Injection sites were inspected daily for 5 days after each immunization for local reactions.
(§2) Daily 24-hour urine specimens and frequent serum samples were collected during at least one menstrual cycle prior to immunizations and following immunizations until the effects of treatment were assessed. Urinary LH, urinary estrogens and plasma progestins were measured. […] Sera were reacted with both the unaltered immunizing hormone and unaltered baboon LH for antibody detection. A purified baboon LH preparation (1.9×NIE-LH-S1) was used as a tracer antigen. Antigen-antibody complexes were precipitated with ovine anti-baboon gamma globulin after a 24-hr. incubation at 4° C. Antibody levels were expressed as pg of labelled hormone bound.
Antisera were fractionated by gel filtration on Sephadex G-200 according to the procedure of Fahey and Terry (at p. 36, Experimental Immunology, F. A. Davis Co., Philadelphia, Pa., 1967, incorporated by reference to the extent necessary to understand the invention) to determine the proportion of IgM and IgG antibodies in the baboon sera. Since the IgG fraction in this procedure contained a portion of IgA and IgD antibodies, only IgM and total titers were determined.

[2] = test system: female baboons; test: Effects on menstrual cycle / ovulation in baboons immunized with diazo-gonadotropins; format: in vivo, baboon
Description: as §1, §2
The effects of immunization upon the event of the menstrual cycle were determined by observing changes in sex skin turgescence and levels of pituitary and/or ovarian hormones. Based on these parameters, the delay or retardation of ovulation from the expected time, as judged by the control cycle, was calculated. […] A third animal immunized with HLH was delayed a calculated 86 days. Ovine LH immunizations produced an 88 day delay in ovulation.

[3] = test system: ovarian ascorbic acid; test: Ovarian ascorbic acid depletion test (LH and HCG biological activity); format: in vivo; conditions: for activity retained, of the unaltered hormone: diazo-coupled hormone, 35 (HCG) / 26 (HLH) groups/molecule
Description: (§3) All preparations, excepting the OLH, were prepared in the inventor's laboratory.
Following dialysis, happen-hormones were lyophilized and stored at 4° C. Diazo-HCG (35 groups/molecule) and HLH (26 groups/molecule) were bioassayed by the ovarian ascorbic acid depletion method and found to retain 62 and 85 percent respectively of the activity of the unaltered hormones from which they were derived. None of the other hormones was assayed for biological activity.

[4] = test system: ovary; test: Ovarian augmentation assay (FSH biological potency); format: in vivo; conditions: partially purified preparation from human pituitaries
Description: as §3

[5] = Local reactions and lymphocyte transformation test in women immunized with Ha-HCG; format: in vivo, human
Description: (§4) Ten mg. of the Ha-HCG antigen were dissolved in 1.0 ml. of saline and emulsified with an equal volume of oil. Prior to injection, scratch tests to antigen and, vehicle were performed. Immunizations were begun in the luteal phase of the treatment cycle to prevent super ovulation from the administered HCG. Four injections at two week intervals were given to the subject. The first two of these were administered in oil subcutaneously (1.0 ml in each upper arm); the final two injections were given in saline only via the intradermal route. Following each injection, blood pressure readings were taken and the subject observed for allergic reactions.
The subject was tested for delayed hypertensivity before immunization and at two week intervals until the injection schedule was completed by an in vitro lymphocyte transformation test.

[6] = test system: HCG; test: Antibody titers to HCG in women immunized with Ha-HCG; format: in vivo, human
Description: Hormone was altered by coupling with a happen (sulfanilazo). This method couples the happen molecules to the protein via the amino group of the aliphatic or aromatic portion of the hapten.
as §4
(§5) Blood samples were collected at weekly intervals beginning two weeks after the initial injection to test for the presence of humoral and cellular antibodies. Following completion of the immunization schedule, blood samples were collected in the same manner as in the control cycle to assess effects of immunization on hormonal patterns of the menstrual cycle. […] A third cycle was similarly studied six months after initial immunization. Upon completion of the study, physical and pelvic examinations and laboratory evaluations were repeated.

[7] = test system: LH; test: Serum pituitary and gonadal hormone patterns (LH, FSH, estrone, estradiol, progesterone) in women immunized with Ha-HCG; format: in vivo, human
Description: Serum determinations of FSH, LH estrone, estradiol and progesterone were performed. These studies indicated an ovulatory pattern.
as §5
Serum samples from the control and post-treatment cycles were assayed for FSH, LH, estrone, estradiol and progesterone.

[8] = test system: baboon antiserum to Structure (II)-ovine gamma-globulin conjugate; test: Displacement of I^125-labeled synthetic peptide of Structure (II) from baboon antiserum to Structure (II)-ovine gamma-globulin; format: binding
Description: The specificity of antibody response to a CG fragment-macromolecular carrier is represented by the instant experiment. […] Note that Human LH was ineffective for displacement of tracer antigen at doses up to 2.5 IU (international units).

[9] = individual immunized female baboons
[10] = cycle approximately six months from the first immunization

Substance: Diazo-HLH: HLH coupled with diazotized sulfanilic acid hapten
cross-reactivity of induced antibodies with baboon LH [1]: relatively little reaction
antibody levels elevated until, from the first detection of antibodies ([1]; one animal): 289 days
calculated delay in ovulation [2, 9]: 86 days
interruption or delay of ovulation (in cycles) [2, 9]: two menstrual cycles
duration of the cycle of immunization (no ovulation) ([2]; one animal): 85 days
activity retained, of the unaltered hormone [3]: 85%

Substance: Diazo-HCG: HCG coupled with diazotized sulfanilic acid hapten
cross-reactivity of induced antibodies with baboon LH [1]: relatively little reaction
interruption or delay of ovulation (in cycles) [2, 9]: no interruption in ovulation; also recorded: two menstrual cycles
activity retained, of the unaltered hormone [3]: 62%

Substance: Diazo-human FSH: human FSH coupled with diazotized sulfanilic acid hapten
antigenicity in the baboon ([1]; in vivo): weakly antigenic
interruption or delay of ovulation (in cycles) [2, 9]: delayed for only one cycle

Substance: HFSH: partially purified preparation from human pituitaries
biological potency [4]: 86 units per mg. (NIH-FSR-SI)

Substance: Ha-HCG: purified HCG coupled with sulfanilazo hapten
lymphocyte transformation tests ([5]; plasma samples): negative
local reaction after initial injection in mannide monooleate ([5]; subcutaneous): some itching and swelling
antibody titers [6, 10]: Significant antibody titers; also recorded: no significant antibody titers
antibody titers to HCG first detected ([6]; one woman per Example, 10 mg per injection, two week intervals): after two injections; also recorded: after three injections
LH pattern (midcycle elevation) [7, 10]: a small midcycle elevation; also recorded: no significant midcycle elevation
progesterone pattern ([7]; post-treatment cycle): no ovulatory preogesterone pattern
midcycle LH elevation ([7]; post-treatment cycle, one woman per Example II-VII): Very small midcycle elevations; also recorded: no midcycle elevations; also recorded: a very small midcycle elevation; also recorded: no peaks; also recorded: no peaks nor midcycle elevation

dose displacing tracer antigen [8]: 20 mIU
Substance: HCG: highly purified preparation from human pregnancy urine
biological potency ([3]; highly purified preparation from human pregnancy urine): 13,200 IU/mg. (2nd IRP-HCG)

dose ineffective for displacement of tracer antigen [8]: > 2.5 IU
Substance: HLH: partially purified preparation from human pituitaries
biological potency ([3]; gonadotropin preparation): 2.5 units per mg. (NIH-LH-SI)
